This assay has as its target factor Xa (Bos taurus, UniProt P00743). Nature of the assay: Steady-state plasma anti-factor Xa activity. To be noted: for AXA AUC(0–24) G mean (CV): 0 to 24 hours after morning dose, day 4, rivaroxaban 10 mg QD, apixaban 2.5 mg BID, N=14. Format: in vivo, healthy subjects (human).

Chains of the proteins cited; added tags and fusions are not shown. Residues count along the entry.
UniProt P00743, 41-180 partner limits assumed: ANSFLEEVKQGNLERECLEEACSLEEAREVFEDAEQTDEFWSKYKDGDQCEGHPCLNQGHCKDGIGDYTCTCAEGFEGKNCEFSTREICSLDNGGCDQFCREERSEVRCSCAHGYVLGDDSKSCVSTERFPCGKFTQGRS
UniProt P00743, 234-492 limits assumed: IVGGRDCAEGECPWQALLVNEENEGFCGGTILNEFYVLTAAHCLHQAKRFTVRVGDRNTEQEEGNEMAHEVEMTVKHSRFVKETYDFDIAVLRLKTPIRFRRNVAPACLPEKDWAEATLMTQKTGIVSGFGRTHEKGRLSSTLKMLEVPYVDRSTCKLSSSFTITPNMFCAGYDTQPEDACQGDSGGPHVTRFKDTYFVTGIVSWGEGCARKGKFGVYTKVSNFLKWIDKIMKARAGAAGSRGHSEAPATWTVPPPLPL

Structures are written as SMILES.

`COc1ccc(-n2nc(C(N)=O)c3c2C(=O)N(c2ccc(N4CCCCC4=O)cc2)CC3)cc1` [Apixaban, apixaban]: the “AXA AUC(0–24) G mean (CV)” value was 13.3 (22) IU · h/mL. Further, the “AXA AUC(0–24) G mean (CV)” value (listed as apixaban) came to 13.3 IU · h/mL. In addition, the “AXA Peak:trough G mean (CV)” value (day 4 steady state, rivaroxaban 10 mg QD (n=13), apixaban 2.5 mg BID (N=14)) is on record as 4.7 (19.5).

The record behind these values is publication PMC4235474 (Clinical Pharmacology : Advances and Applications, 2014).
